# Binding of CDR-mutated scFvs to a peptide of the spike HR2 region

Target peptide (SARS-CoV-2 spike, HR2 region): PDVDLGDISGINAS

Parent scFv Ab-91: VL joined to VH by the linker GGGGSGGGGSGGGGS. Changes lie in the heavy chain CDRs alone.
VL: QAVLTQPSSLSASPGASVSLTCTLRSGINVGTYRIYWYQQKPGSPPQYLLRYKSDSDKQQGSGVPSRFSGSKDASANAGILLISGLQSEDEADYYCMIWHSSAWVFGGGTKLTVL
VH: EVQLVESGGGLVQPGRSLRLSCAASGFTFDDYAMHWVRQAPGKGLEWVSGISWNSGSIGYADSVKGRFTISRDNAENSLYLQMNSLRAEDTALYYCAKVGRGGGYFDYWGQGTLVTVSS

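In library AAYL51, one, two or three CDR residues were substituted; doubles and triples were drawn at random. The scFvs were displayed on barcoded MATa yeast, the peptide on MATalpha yeast. Mating (16 h, 30 °C) was followed by selection of diploids and sequencing of their barcodes. The ratio of observed to expected reads was calibrated, replicate by replicate, on BCL2-family standards whose Kd was known from biolayer interferometry. Each pool was mated in three replicate cultures.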

Substitutions are numbered in sequence along the VH above, starting at 1 (not Kabat). All variants listed here change Y32 of the VH, counted from its first residue. Each Kd is an estimate from the mating assay, the geometric mean of the replicates in which the pair was seen; lower is stronger. "nd" marks a missing value. The strain was present, yet no cells mated with the target were sequenced in any replicate, which points to weak or no binding. As a blank, each scFv also met three strains without target: over library AAYL51, 21% of these pairings were detected, typically at 34 µM and seldom below 1.8 µM.

* Y32W+I51Y+D107I = nd (0 of 3 replicates)
* Y32V+N54Y+S63Y = 92 µM (2 of 3 replicates)
* Y32Q+A33N = nd (0 of 3 replicates)
* Y32D+G59T+Y108C = 1.7 µM (1 of 3 replicates)
* D30C+Y32W+S63E = 39 µM (3 of 3 replicates)
* Y32G+A61Y+V99H = nd (0 of 3 replicates)
* Y32K+W53A+F106D = 93 µM (3 of 3 replicates)
* F27E+Y32P+G104L = nd (0 of 3 replicates)
* Y32Q+G102H = nd (0 of 3 replicates)
* G26E+Y32H+G104F = 90 µM (2 of 3 replicates)
* Y32M+N54L = nd (0 of 3 replicates)
* Y32R+M34V = nd (0 of 3 replicates)
* Y32M+N54W+G103Q = nd (0 of 3 replicates)
* Y32I+I51K+W53T = 3.2 µM (1 of 3 replicates)
* Y32H+W53F+D107W = 14 µM (1 of 3 replicates)
* Y32D+M34G+S55W = nd (0 of 3 replicates)
* Y32R+Y60A+D62E = nd (0 of 3 replicates)
* T28R+Y32R+R101D = 25 µM (1 of 3 replicates)
* Y32S+G104D+Y105P = 93 nM (3 of 3 replicates)
* F27Q+Y32E+G56N = nd (0 of 3 replicates)
* Y32K+V99M+G102Y = 13 µM (1 of 3 replicates)
* Y32S+A33K+S52M = 38 µM (2 of 3 replicates)
* Y32S+W53Y+G59A = 29 µM (1 of 3 replicates)
* G26P+Y32F+Y105S = 30 nM (3 of 3 replicates)
* Y32K+Y60H+R101D = 79 µM (2 of 3 replicates)
* Y32E+I58T = nd (0 of 3 replicates)
* Y32V+S63D+G104C = 5.8 µM (1 of 3 replicates)
* Y32H+G56D+S57K = 1.4 µM (3 of 3 replicates)
* D30W+Y32E = 18 µM (1 of 3 replicates)
* Y32N+M34Y+V64G = 610 µM (1 of 3 replicates)
* Y32F+M34S+N54G = nd (0 of 3 replicates)
* Y32E+W53R+K65H = 41 µM (3 of 3 replicates)

The first 2 variants above that were never detected:

* Y32W+I51Y+D107I -> nd (0 of 3 replicates)
* Y32Q+A33N -> nd (0 of 3 replicates)

The measurements come from Engelhart et al. 2022 (doi:10.1038/s41597-022-01779-4) through the FLAb antibody collection.